Experimental data published in article PMC8322572 (Pharmacology Research & Perspectives, 2021).

Legend:
[1] = Chemical stability at pH 3.0 or 7.4, 37℃, HPLC; format: physicochemical; settings: buffer
[2] = Metabolic stability in mouse liver S‐9; format: in vitro ADME; settings: Table 3; 88 µM, 30 min, 37℃, n = 3
[3] = Metabolic stability in human liver S‐9; format: in vitro ADME; settings: Table 3; 88 µM, 30 min, 37℃, n = 3
Human FMO1 = biological target: T1, Human FMO1 (Homo sapiens, UniProt Q01740); test: Metabolism by highly purified human FMO1; format: in vitro ADME; settings: Table 3; 88 µM, 15 µg FMO1, 30 min, 37℃, n = 3
T1 sequence (Q01740 1-532): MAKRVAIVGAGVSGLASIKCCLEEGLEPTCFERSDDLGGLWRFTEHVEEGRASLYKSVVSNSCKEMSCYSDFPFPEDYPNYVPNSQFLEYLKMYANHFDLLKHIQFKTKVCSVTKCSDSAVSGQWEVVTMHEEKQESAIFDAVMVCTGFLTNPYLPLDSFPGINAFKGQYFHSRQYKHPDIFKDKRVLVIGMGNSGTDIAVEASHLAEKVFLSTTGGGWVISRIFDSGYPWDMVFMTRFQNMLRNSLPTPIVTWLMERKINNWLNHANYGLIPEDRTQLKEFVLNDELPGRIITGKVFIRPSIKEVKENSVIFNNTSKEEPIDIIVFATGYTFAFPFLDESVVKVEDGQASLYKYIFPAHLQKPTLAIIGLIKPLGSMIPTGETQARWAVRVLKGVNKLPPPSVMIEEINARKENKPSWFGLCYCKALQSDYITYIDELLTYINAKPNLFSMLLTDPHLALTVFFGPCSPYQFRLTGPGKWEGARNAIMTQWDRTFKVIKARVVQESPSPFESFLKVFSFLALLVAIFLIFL

Cl.[2H]C(C)(N)COc1c(C)cccc1C (stereo not drawn) [Compound 17, 1-(2,6-Dimethylphenoxy)propan-2-d-2-amine hydrochloride]
half-life ([1]; pH 3): > 15 days | half-life ([1]; pH 7.4): > 30 days

Cc1cccc(C)c1OCC(C)N (centres unmarked) [Mexiletine, reference compound]
Rate metabolized, Mouse S‐9 [2]: 0.67 ± 0.04 nmol/min/mg of protein | Rate metabolized, Human S‐9 [3]: 0.33 ± 0.1 nmol/min/mg of protein | Rate metabolized, Human FMO1 (Human FMO1): 5.33 ± 0.08 nmol/min/mg of protein
